Experimental data reported in patent US20100273193A1.
This is a selection: effects in other tests are not listed, and their absence says nothing.

Columns and labels:
[1] = test system: mouse serum (TATP antibodies); assay: direct ELISA with mouse serum and TATP-peroxidase tracer (TATP calibration curve)
[2] = test system: mouse serum (TATP antibodies); assay: indirect ELISA with mouse serum and anti-mouse peroxidase tracer (TATP calibration curve)
[3] = test system: rabbit serum (TATP antibodies); assay: direct ELISA with rabbit serum and TATP-peroxidase tracer (TATP calibration curve)
[4] = test system: rabbit serum (TATP antibodies); assay: indirect ELISA with rabbit serum (TATP calibration curve)
[5] = at room temperature; cited from earlier work

CC1(C)OOC(C)(C)OOC(C)(C)OO1
point of inflexion ([1]; 1:10,000 diluted mouse serum, 1:10,000 diluted TATP-peroxidase tracer, FIG. 3 curve a): 2.5 mg/L | Kd ([1]; read-out: mean antibody affinity, 1:10,000 diluted mouse serum, FIG. 3 curve a): 5700 nM | point of inflexion ([2]; 1:10,000 diluted mouse serum, 1:5,000 diluted anti-mouse peroxidase tracer, FIG. 3 curve b): 5.6 mg/L | Kd ([2]; read-out: mean antibody affinity, 1:10,000 diluted mouse serum, FIG. 3 curve b): 13000 nM | point of inflexion ([3]; 1:120,000 diluted rabbit serum, 1:30,000 diluted TATP-peroxidase tracer, FIG. 4 curve a): 1.6 µg/L | Kd ([3]; read-out: mean antibody affinity, 1:120,000 diluted rabbit serum, FIG. 4 curve a): 5.7 nM | point of inflexion ([4]; 1:120,000 diluted rabbit serum, 1:30,000 diluted TATP-peroxidase tracer, FIG. 4 curve b): 0.98 µg/L | Kd ([4]; read-out: mean antibody affinity, 1:120,000 diluted rabbit serum, FIG. 4 curve b): 3.5 nM | vapor pressure [5]: about 7 Pa
